{"source": "patent US12201592B2", "about": "“Combinations of IRS/STAT3 dual modulators and anti-cancer agents for treating cancer” (TYRNOVO LTD., priority 2015, dated 2025)", "format_in_all_cases": "in vivo, NodScid mice", "key": {"[1]": {"test_system": "HNSCC tumor biopsy", "assay": "PDX efficacy study, tumor recurrence after Cetuximab±Afatinib (Example 7)", "method": "Experimental system: Patient-derived xenograft (PDX) of HNSCC tumor biopsy subcutaneous implanted into NodScid mice.\nTreatment groups included: • 1. Vehicle-control: Vehicle (0.5% Hydroxymethyl-cellulose, 0.4% Tween-80) 200 μl PO (5 times/week, qd). • 2. […] Cetuximab 1 mg/mouse IP (2 times/week). • 4. […] Cetuximab 1 mg/mouse IP (2 times/week)+Afatinib 25 mg/kg in vehicle PO (5 times/week) • 6."}, "[2]": {"test_system": "Adnexal adeno metastatic carcinoma biopsy", "assay": "PDX efficacy study with Cetuximab (Example 11)", "method": "Experimental system: Patient-derived xenograft (PDX) of human primary Adnexal adeno metastatic carcinoma biopsy subcutaneous implanted into NodScid mice.\n• Biopsy: fresh human Adnexal adeno carcinoma metastatic (skin) biopsy (sample ID: RA-162) • Implantation of tumor biopsy grafts (P3) into NodScid mice for efficacy study: When tumors (P2) reached average size of about 1500 mm^3, tumor tissue was injected into 50 male NodScid mice, generated by in-house breeding in the animal facilities of Bar Ilan University, at the same procedure described in example 1. • 19 mice whose tumors reached average size of about 90 mm^3 were included in the study.\nThe mice were divided into 4 groups and the following treatments initiated (day 0): • Control: Vehicle of NT219 (20% HPbCD) 50 μl IV twice a week—5 mice • Compound D 70 mg/kg IV twice a week—6 mice • Cetuximab 1 mg/mouse IP twice a week—5 mice • Cetuximab (1 mg/mouse IP)+Compound D (70 mg/kg IV), twice a week—3 mice\n(§1) In the combination group Cetuximab was administered ˜4 hr following Compound D."}, "[3]": {"test_system": "colon metastatic carcinoma biopsy", "assay": "PDX efficacy study with Cetuximab and FOLFIRI (Example 12)", "conditions": "start ~110 mm^3; 14 days", "method": "Experimental system: Patient-derived xenograft (PDX) of human primary colon metastatic carcinoma biopsy subcutaneous implanted into NodScid mice.\n• Biopsy: fresh human colon cancer biopsy (sample ID: RA-149) • Implantation of tumor biopsy grafts (P4) into NodScid mice for efficacy study: When tumors (P3) reached average size of about 1500 mm^3, tumor tissue was injected into male NodScid mice, generated by in-house breeding in the animal facilities of Bar Ilan University, at the same procedure described in example 1. • 36 mice whose tumors reached average size of about 110 mm^3 were included in the study.\nThe mice were divided into 7 groups and the following treatments initiated (day 0): • Control: Vehicle of NT219 (20% HPbCD) 50 μl IV twice a week—5 mice • Compound D 70 mg/kg IV twice a week—5 mice • Cetuximab 1 mg/mouse IP twice a week—5 mice • FOLFIRI IP 5 times a week—5 mice • Cetuximab 1 mg/mouse IP twice a week+FOLFIRI IP 5 times a week—5 mice • Cetuximab 1 mg/mouse IP twice a week+FOLFIRI IP 5 times a week+Compound D 70 mg/kg IV twice a week—6 mice\nas §1"}}}
{"substance": "Cetuximab: EGFR antibody", "values": [{"measurement": "tumor response while on treatment", "setting": "[1]; 9 days of treatment, start ~113 mm^3", "value": "dramatic tumor regression in all mice"}, {"measurement": "start of tumor re-growth following cease of treatments", "setting": "[1]; treatment for 9 days only", "value": "Eight days following cease of treatments"}, {"measurement": "average tumor volume at the end of the experiment", "setting": "[2]; day34", "value": "> 500", "unit": "mm^3"}, {"measurement": "tumor response", "setting": "[2]; start ~90 mm^3, Cetuximab 1 mg/mouse IP, Compound D 70 mg/kg IV, twice a week", "value": "transient tumor growth attenuation followed by acquired resistance to Cetuximab"}, {"measurement": "effect on tumor growth", "setting": "[3]", "value": "No effect on tumor growth"}]}
